Test results as given in PMC11280065, “^64Cu^2+ Complexes of Tripodal Amine Ligands’ In Vivo Tumor and Liver Uptakes and Intracellular Cu Distribution in the Extrahepatic Bile Duct Carcinoma Cell Line TFK-1: A Basic Comparative Study” (Pharmaceuticals, 2024).

System: mice bearing TFK-1-RFP cells
Conditions: mean ± SD; for liver uptake / tumor uptake: n = 3–4/group
[1] = TFK-1-RFP-xenografted SCID beige mice, 2.5 h after intravenous injection of 1.85 MBq

Structure (SMILES)	liver uptake [1]	tumor uptake [1]	kidney uptake [1]	urinary excretion (urine collected during the 2.5 h post-administration, intravenous, TFK-1-RFP-xenografted mice)
[Cu+2] [Cu^2+ ions, reference compound]	34.96 ± 2.32 %ID/g	5.98 ± 1.09 %ID/g	–	–
[Cl-].[Cl-].[Cu+2].c1ccc(CN(Cc2ccccn2)Cc2ccccn2)nc1 [Cu^2+-TPMA]	34.58 ± 3.58 %ID/g	–	–	–
NCCN(CCN)CCN.[Cl-].[Cl-].[Cu+2] [Cu^2+-Tren]	26.38 ± 2.04 %ID/g	13.20 ± 2.65 %ID/g	10.87 ± 1.98 %ID/g	7.81 ± 2.54 %ID
